Measured values taken from PubChem BioAssay AID1049 (The Scripps Research Institute Molecular Screening Center, 2008).
Only a part is listed here, and it is no random draw. The source made the active and inactive calls. Cut-off read from the data, not from the text of the source: active = TR-FRET ratio above about 2000; inactive = the rest.

Assay: detection-format interference in TR-FRET ratio – biochemical, artefact control for PPARgamma SRC-2 agonist project, primary screen (AID 1049)
Details: TR-FRET artefact counter-screen; at 8 µM; stronger effect = higher value

SMILES	TR-FRET ratio
CCOc1ncccc1C(=O)NCC1(N2CCOCC2)CCCCC1	inactive: 1420
CC(C)(C)OC(=O)N1CCC(Nc2ccccc2)CC1	inactive: 1380
CCC(CO)(C(=O)OC1CN2CCC1CC2)c1ccccc1 (stereo not given)	inactive: 1260
COc1cc(OC)cc(C(=O)NCC2(N3CCOCC3)CCCCC2)c1	inactive: 1520
CCN1CCC(Nc2cccc(F)c2)CC1	inactive: 1630
CN(C)c1ccc(C(=O)NCC2(N3CCCCC3)CCCCC2)cc1	inactive: 1510
N#Cc1ccc(C(=O)NCC2(N3CCCCC3)CCCCC2)cc1	inactive: 1650
c1ccc(CN2CCC(Nc3ccccc3)CC2)cc1	inactive: 1470
COc1ccc(C(=O)NCC2(N3CCOCC3)CCCCC2)cc1OC	inactive: 1540
N/C(=N\O)c1c(N)no[n+]1[O-]	inactive: 1700
O=C(OC1CN2CCC1CC2)C1c2ccccc2C=Cc2ccccc21 (stereo not given)	inactive: 1490
COc1ccc(CN(CCCl)CCCl)cc1Cl	inactive: 1500
CN(C)c1cccc(C(=O)NCC2(N3CCCCC3)CCCCC2)c1	inactive: 1340
CC(C)c1ccc(NC2CCN(C(=O)OC(C)(C)C)CC2)cc1	inactive: 1480
CN1CCC(Nc2cccc(F)c2)CC1	inactive: 1610
O=C(NCC1(N2CCCCC2)CCCCC1)c1cccc([N+](=O)[O-])c1	inactive: 1530
N#CC1(Nc2ccccc2)CCN(CCc2ccccc2)CC1	inactive: 1470
COc1ccc(NC2CCN(C(=O)OC(C)(C)C)CC2)cc1	inactive: 1470
CN1CCN(CCOC(=O)C(O)(c2ccccc2)c2ccccc2)CC1	inactive: 1450
O=C(NCC1(N2CCOCC2)CCCCC1)c1cc(=O)[nH]c2ccccc12	inactive: 1410
COc1ccc(NC2CCN(CCc3ccccc3)CC2)c(OC)c1	inactive: 1610
COc1ccc(C(=O)NCC2(N3CCCCC3)CCCCC2)c(OC)c1OC	inactive: 1570
O=C(NCC1(N2CCOCC2)CCCCC1)c1cc2ccccc2o1	inactive: 1350
CCOC(=O)N1CCC(Nc2ccc(OC)cc2)CC1	inactive: 1460
O=C(OC1CN2CCC1CC2)C1c2ccccc2Oc2ccccc21 (stereo not given)	inactive: 1680
